Source: patent publication US11857601B2, “Pharmaceutical composition for cancer treatment comprising fusion protein including IL-2 protein and CD80 protein and anticancer drug” (GI INNOVATION, INC., priority 2020, dated 2024)

What was measured:
[1] = system: BT-474 cells; experiment: mGI-101 and Herceptin in BT-474 xenotransplanted tumor model; format: in vivo, human
Source text: BT-474 cells were purchased from ATCC (USA) and cultured in RPMI1640 medium (Welgene) containing 10% FBS (Gibco) and 1% antibiotic/antifungal agent (Gibco).
In order to establish a xenotransplanted tumor model for BT-474 cells, it was subcutaneously injected into the left flank of BALB/c nu/nu female mice (7-week-old) by pulling the leather skin of the mice to make a space using a pellet transplant trochar (MP-182, Innovative Research of America, USA) so that it was located under the skin of the left flank.
A certain period of time after cell inoculation of the tumor grafts of the mice, the tumor volume was measured for animals with no abnormalities in the health condition of the animals, and the subjects were selected so that the average of each group reached less than 60-120 mm^3, and the selected animals were assigned as evenly as possible based on tumor volume and body weight, each group including 10 animals.
Clinical symptoms such as a disease and a behavioral change were observed once a day during the test period, and deceased animals were identified, and the mice were sacrificed when the tumor size reached a size of 4,000 mm^3.
The tumor volume before administration of each subject was set as the value measured at the time of grouping.
All statistical calculations were performed using Prism 8.0 (Graph Pad Software Inc, USA). […]

[2] = system: HCT116 cells; experiment: Cancer cell killing, GI-101 and Cetuximab, HCT116 with NK cells; format: cell-based, human; conditions: GI-101 100 nM, Cetuximab 68.6 nM, 24 hours
Source text: This experiment was to evaluate the effect of killing cancer cells by treating HCT116 cells (human colon cancer cells) with the test substance GI-101 alone or in combination with Cetuximab substance in an in vitro environment.
HCT116 cells were purchased from the Korea cell line bank and cultured in McCoy's 5A medium (ATCC) containing 10% FBS (Gibco) and 1% antibiotic/antifungal agent (Gibco). For use in cancer cell killing test, the cells were harvested using trypsin (Gibco), and then suspended in McCoy's 5A medium, and then dead cells and debris were removed using Ficoll (GE Healthcare Life Sciences) solution. The cells suspended in McCoy's 5A medium were carefully layered on ficoll solution. […]
In order to identify the effect of killing the cells, a CytoTox Green reagent ([…]™ CytoTox Green, Satorius) that binds to the DNA of cells to be killed was prepared in 1 μl per 1 mL of RPMI1640 medium containing 5% human AB serum (Sigma). The prepared medium was used for dilution of the test substance, and the effect of killing the cells could be quantitatively identified by staining the cells to be killed when the test substance was co-cultured with cancer cell lines and PBMCs. […]

Substance	tumor size ([1]; Herceptin alone, day 25 and day 28)	tumor size compared with the vehicle control ([1]; mGI-101 3 mg/kg i.v. QW: day 28, Herceptin 1 mg/kg i.p. QW: day 14, 18, 21, combination: day 14 to day 28)	level of killing cancer cells [2]
Herceptin: Herceptin (Trastuzumab) [reference compound]	tended to be increased rapidly	statistically significant reduction in tumor size	
Cetuximab: EGFR inhibitor [reference compound]			high level of killing cancer cells
